Experimental data from patent US7250397B2, “Antiarrhythmic peptides” (Zealand Pharma A/S, priority 2000, dated 2007).

Key:
[1] = tested on: isolated guinea pig myocytes; assay: Intercellular conductance Gj (GJIC), double patch clamp of cardiomyocyte pairs; assay type: cell-based; conditions: 10^−8 M; steady-state level; five experiments
Description: Cell preparation: Cells were isolated from guinea pig hearts by perfusion with collagenase according to the Langendorf method. In brief, guinea pigs were heparinised with an intraperitoneal injection of heparin (1000 IU/kg). After 30 minutes the animal was sacrificed by a blow to the neck followed by cutting the spine at the neck. The chest was opened and the aorta cannulated. Then the cannula was fixed to the aorta by a ligature, exised and perfused with Tyrodes solution for a couple of minutes. The Tyrodes solution had the following composition in mM: Na^+ 135.33, K^+ 4, Cl^− 145, PO4^− 0.33, Mg^2+ 1, Ca^2+ 2, Hepes 10, Glucose 10, pH 7.4. All perfusion media were bubled by 100% oxygen. […]. Then the heart was perfused with high K^+ solution with 0.6 mg/ml collagenase, this was done for 10-15 minutes judged from the apperance of the heart. The atria were cut off, the ventricles minced, whereafter the pieces were stirred in the collagenase solution by gently bubbling with 100% oxygen. […]
Where Ip,pulse and Ip,rest represent the current in the passive cell during the pulse and before the pulse respectively, and Up and Ua represent the voltage of the passive and active cell. […] However, the change in Gj value to a standardized intervention like a drug can be analysed by comparing the relative changes in Gj.

[2] = tested on: alkaline phosphatase (ALP) activity of human osteoblasts; assay: Alkaline phosphatase (ALP) assay in human osteoblasts; assay type: cell-based; conditions: 5% O2, four days; 10^−11 to 10^−8 mol/l
Description: Human osteblast cells (hOB): Cells were isolated from human bone marrow obtained by puncture of the posterior iliac spine of healthy volunteers (aged 20-36): 10-15 ml marrow material was collected in 15 ml PBS+Ca,Mg (Life Technologies, Cat.No. 14040) with 100 U/ml Heparin (Sigma, Cat.No. H-3149). The mononuclear fraction of the marrow was isolated on a Lymphoprep gradient (Nycomed Pharma, Cat.No. 1001967), by centrifugation at 2200 rpm for 30 min. After harvesting, the mononuclear fraction was washed once with culture medium and centrifuged at 1800 rpm for 10 min. Subsequently cells were counted and plated in culture medium at 8×10^6 cells/100 mm dish. hOB medium (all reagents obtained from Life Technologies): MEM w/o Phenol Red w/Glutamax (Cat.No. 041-93013) supplemented with 10% heat inactivated fetal calf serum (Cat.No. 10106) and 0.1% Penicillin/Streptomycin (Cat.No. 15140). […]
• Day 1: Cells were plated in 96-well plates at a conc. of 8000 cells/well (hOB) or 3000 cells/well (ROS) in 200 μl normal culture medium. • Day 2: Medium was changed on the cells. • Day 4: (Day 3 for ROS): Cells were washed with 200 μl MEM, 0.1% BSA (Sigma, Cat.No. A-9418). […] Absorbance was measured using a plate reader at 405 nm. […]
Finally, to assess the effect of Compound 2 on bone formation and osteoblast activity, we measured the effect of the compound on the alkaline phosphatase (ALP) activity of the cells. […]

Ac-D-Tyr-D-Pro-D-4Hyp-Gly-D-Ala-Gly-NH2 [Compound 2]
ΔGj, relative change in intercellular conductance [1]: +120±46%
stimulation of ALP activity during hypoxia relative to normoxia [2]: about 15%
